Compounds with a hit are over-represented: about 4.2% of the library has one in this group of screens.
Yeast UUG start: alters start codon recognition fidelity in yeast. S. cerevisiae UUG-firefly luciferase reporter, luminescence/redox ratio. AID 602363. activity score, % at 18.7 µM. hit rate 0.13% among 350,000;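 active = replicate mean at a twofold rise or more, about +100% in these data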;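 note: firefly luciferase made from a UUG start codon reports start codon fidelity; reporter light over untreated wells divided by growth signal over untreated wells; some hits fall short of that in this replicate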
MC4R barr agon: activates human MC4R beta-arrestin recruitment | AID 540308 | U2OS MC4R beta-arrestin complementation, luminescence; percent of melanotan II response, DMSO zero | activation, % at 8.9 µM | 0.98% of 360,000 active;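 active means activation above a per-plate cutoff, the mean activation of sample wells on that plate plus 3 SD, cut at about 8% in these data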
ALR inh: human ALR oxidase inhibition via reduced H2O2. 290,000 tested, 3.8% active. AID 485317. purified ALR, DTT oxidation, H2O2 HRP-luminol luminescence. inhibition, % (test concentration not listed). P55789;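 active = mean and each replicate at 75% or more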;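 also: stock transfer was 7.5 nL into about 7.5 µL; 0% = neutral wells and 100% = wells with inactivated enzyme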
MC4R antag cAMP: human MC4R antagonism in cAMP assay; P32245; AID 540295; 0.48% of 360,000 active; inhibition, % at 6.5 µM; MC4R-expressing cells, MTII-stimulated cAMP, LANCE TR-FRET;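 active means inhibition above its plate's cutoff, the mean of tested wells on that plate plus 3 SD, cut at about 29% in these data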
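Material: U2OS-MC4R stable cell line | Reagent: Melanotan II challenge after compound preincubation | Doses: One concentration, 6.5 µM nominal | Incubation: 30-min compound preincubation, 1-h Melanotan II challenge, 1-h detection, room temperature | Signal: TR-FRET cAMP assay | Replicates: One well per compound, no replicates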
NALP1 yeast inh: NALP1 inhibition | inhibition, % at 10 µM | S. cerevisiae NALP1/ASC/caspase-1 growth, X-gal OD620, 72 h | AID 2071 | 0.61% of 280,000 active; in the data active means inhibition mostly above about 24%, no sharp cut-off; inactive means mostly below about 32%
HDAC3 inh: blocks human histone deacetylase 3; O15379; recombinant HDAC3, fluorogenic peptide/trypsin coupled, fluorescence; inhibition, % at 8.3 µM; 0.15% of 320,000 active; AID 2718; in the data active means inhibition above about 26%, passing the limit was not always enough; inconclusive means no clear call, values can overlap the other calls
MC4R barr conf: human MC4R beta-arrestin agonism confirmation; 31% of 2,400 active; shares compounds with MC4R barr agon; activation, % at 8.9 µM; U2OS MC4R beta-arrestin recruitment, luminescence; scaled DMSO 0%, Melanotan II 100%;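 active means mean activation across replicates above the hit cutoff set in the earlier primary screen, cut at about 8% in these data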
MOR-DOR barr ag: counter-screen for MC4R agonists: agonists of mu-delta opioid heterodimer; shares compounds with MC4R barr agon; activation, % at 9.2 µM; U2OS PathHunter beta-arrestin, beta-gal luminescence; percent of deltorphin B response, DMSO zero; 5.8% of 2,400 active;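 active means mean activation across replicates exceeds the hit threshold derived in the earlier primary screen, cut at about 18% in these data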
Hits are given with their value; n = inactive; u = inconclusive; x = not tested or not shown.

SMILES | Yeast UUG start | MC4R barr agon | ALR inh | MC4R antag cAMP | NALP1 yeast inh | HDAC3 inh | MC4R barr conf | MOR-DOR barr ag
CCOC(=O)/C(=N\Nc1ccc(C(C)=O)cc1)c1csc(Nc2ccccc2)n1 | x | 21 | n | n | n | n | 13 | n
CCOc1cc(/C=N/N=C(/N)c2nonc2N)cc(Br)c1OCc1ccc(Cl)cc1 | x | n | n | n | n | n | x | x
COc1cc(/C=N/N=C(/N)c2nonc2N)cc(Br)c1OCc1ccccc1C | x | 16 | n | n | n | n | n | n
N#C/C(=C/c1ccco1)c1nc2ccccc2s1 | n | 9.6 | n | n | n | n | n | n
C[C@H](NC(=O)C[C@H]1CC[C@H](NC(=O)C2CC2)[C@H](CO)O1)c1ccccc1 | n | x | x | x | x | x | x | x
CCCC(=O)Nc1ccc2c(c1)C(=O)N(C)[C@H]1CC[C@H](CC(=O)NCC3CC3)O[C@H]1CO2 | n | x | x | x | x | x | x | x
O=C(Cc1c[nH]c2ccccc12)N/N=C/c1ccccc1O | x | n | n | n | n | x | x | x
CC(C)(C)c1ccc(/C=N/NC(=O)Cc2c[nH]c3ccccc23)cc1 | n | 10 | n | n | n | n | n | n
Cc1ccc(S(=O)(=O)Nc2ccc3c(c2)C(=O)N([C@H](C)CO)C[C@H](C)[C@H](CN(C)C(=O)Nc2ccccc2)OCCCC[C@H](C)O3)cc1 | n | x | x | x | x | x | x | x
O=C(Nc1nnc(C2CC2)s1)c1ccc(Cl)c(S(=O)(=O)N2CCc3ccccc3C2)c1 | x | 11 | n | n | n | n | n | n
COC(=O)c1c(NC(=O)C(C)(C)C)sc2c1CCN(Cc1ccccc1)C2 | n | 11 | n | n | n | n | n | n
COc1ccc(NC(=O)COC(=O)c2c(NC(C)=O)sc(C)c2C)cc1 | n | 31 | x | n | x | x | 18 | n
CC(=O)Nc1sc(C)c(C)c1C(=O)OCC(=O)NCc1ccccc1 | n | n | x | n | x | x | x | x
CCOC(=O)Nc1sc(C)c(C)c1C(=O)OCC | x | 10 | n | n | n | n | n | n
CCCNC(=O)[C@H]1[C@H](CO)[C@H]2Cn3c(ccc(-c4ccccc4F)c3=O)[C@H]2N1CCC | n | x | x | x | x | x | x | x
Cc1cc(C(=O)COC(=O)CNC(=O)c2ccc(Cl)c(Cl)c2)c(C)n1Cc1ccco1 | n | 12 | n | n | x | n | n | n
C[C@H]1CN([C@@H](C)CO)C(=O)c2cccc(NS(=O)(=O)c3ccc(Cl)cc3)c2O[C@@H]1CN(C)C(=O)Nc1ccccc1 | n | x | x | x | x | x | x | x
O=C(COC(=O)c1cccnc1Nc1ccccc1F)NCc1ccc2c(c1)OCO2 | n | 10 | n | n | n | n | n | n
CN1CCN(c2cc(N3CCc4ccccc4C3)c(F)cc2[N+](=O)[O-])CC1 | x | 14 | n | n | n | n | 11 | n
O=C(CN1CCOCC1)N1CCCCN2[C@@H](CO)[C@@H](c3ccc(/C=C/c4ccccc4)cc3)[C@@H]2C1 | n | x | x | x | x | x | x | x
C[C@@H]1CN([C@H](C)CO)C(=O)c2cc(-c3ccc(C#N)cc3)cnc2O[C@H]1CN(C)C(=O)Nc1ccc(F)cc1 | n | x | x | x | x | x | x | x
O=C(OC1CCN(c2ccc([N+](=O)[O-])cc2)CC1)c1ccccc1 | n | 20 | x | n | n | n | n | n
C[C@H](CO)N1C[C@H](C)[C@H](CN(C)C(=O)Nc2ccc(F)cc2)Oc2c(NS(C)(=O)=O)cccc2C1=O | n | x | x | x | x | x | x | x
CSc1cccc(NC(=O)CN(c2cccc(C)c2)S(C)(=O)=O)c1 | n | n | x | n | n | n | x | x
CSc1cccc(NC(=O)CN(c2ccc(C)cc2C)S(C)(=O)=O)c1 | x | 10 | n | n | n | n | n | n
SMILES | Yeast UUG start | MC4R barr agon | ALR inh | MC4R antag cAMP | NALP1 yeast inh | HDAC3 inh | MC4R barr conf | MOR-DOR barr ag
Cc1ccc(C2CC(c3cccs3)=NN2C(=O)CCl)cc1 (stereo not drawn) | n | 10 | n | n | n | n | n | 27
O=C(COc1ccc2ccccc2c1)Nc1nc2ccccc2[nH]1 | n | 10 | n | n | n | n | n | n
O=C(C1CCCC1)N1C[C@@H]2[C@H](c3ccccc31)[C@H](CO)N2C(=O)c1cccnc1 | n | x | x | x | x | x | x | x
COc1ccccc1NC(=O)c1ccc(-c2ccc(Br)cc2)o1 | x | n | n | n | n | n | x | x
COc1cc(NC(=O)c2ccc(-c3ccc(Br)cc3)o2)ccc1NC(=O)C(C)C | n | 15 | n | n | n | n | n | n
C=CCC[C@@H](Cc1ccc(F)cc1)C(=O)OC[C@@H](Cc1c[nH]c2ccccc12)NC(=O)[C@H](CC=C)CC(=O)N[C@H](CO)Cc1ccccc1 | n | 10 | n | n | x | n | n | n
C=CC[C@@H](CC(=O)N[C@@H](CO)Cc1ccccc1)C(=O)N[C@H](COC(=O)[C@H](CC=C)CC(=O)OC(C)(C)C)Cc1c[nH]c2ccccc12 | n | n | n | n | x | u | x | x
C=CC[C@H](CC(=O)N[C@H](CO)Cc1ccccc1)C(=O)N[C@H](COC(=O)[C@H](CC=C)CC(=O)OC(C)(C)C)Cc1c[nH]c2ccccc12 | n | 22 | n | n | x | n | n | n
C=CCC[C@H](Cc1ccc(F)cc1)C(=O)OC[C@@H](Cc1c[nH]c2ccccc12)NC(=O)[C@@H](CC=C)CC(=O)N[C@@H](CO)Cc1ccccc1 | n | n | n | n | x | n | x | x
N#C[C@H]1[C@H](c2ccc(-c3ccccc3F)cc2)[C@H](CO)N1C(=O)C1CCC1 | n | x | x | x | x | x | x | x
COc1ccccc1-c1ccc2c(c1)[C@@H]1[C@@H](CCN1S(=O)(=O)c1ccc(C)cc1)[C@H](CO)N2 | n | x | x | x | x | x | x | x
CCCC(=O)Nc1ccc2c(c1)C(=O)N(C)C[C@H](OC)[C@@H](C)CN(Cc1ccccc1F)[C@@H](C)CO2 | n | x | x | x | x | x | x | x
Oc1[nH]c2ccccc2c1N=Nc1cccc(Cl)c1 | n | n | n | n | n | n | x | x
Cc1cccc2c(N=Nc3ccccc3)c(O)[nH]c12 | x | 15 | x | n | n | n | n | n
C[C@@H]1CN([C@@H](C)CO)S(=O)(=O)c2ccc(C#CC3(O)CCCC3)cc2O[C@H]1CN(C)C(=O)Nc1ccccc1 | n | x | x | x | x | x | x | x
CCOC(=O)c1ccc(NC(=S)Nc2cccc(C)n2)cc1 | n | 22 | n | n | n | n | n | n
CCOC(=O)c1ccc(NC(=S)Nc2cccc(N)n2)cc1 | n | n | n | n | n | n | x | x
C[C@H](CO)N1C[C@H](C)[C@@H](CN(C)Cc2ccc(C(=O)O)cc2)OCCCC[C@H](C)Oc2ccc(NS(=O)(=O)c3ccc(F)cc3)cc2C1=O | n | x | x | x | x | x | x | x
CCN=C1SC(CC(=O)Nc2sc3c(c2C#N)CCCC3)C(=O)N1CC (stereo not drawn) | n | 12 | n | n | n | n | n | n
O=C(Nc1ccc(Br)cc1)C(c1ccccc1)c1ccccc1 | n | 11 | n | n | n | n | n | n
